These are literature values, as cited in US9132099B2, “Medical implants and methods for regulating the tissue response to vascular closure devices” (Vascular Therapies LLC, priority 2001, dated 2015).

For the data set the following is noted: collagen saturated at 3 μg/g, implanted into muscle tissue, Mehta et al.; cited from earlier work.

With gentamicin, the “delivery of antibiotic into blood through day” value was 28 days.
